Reference: the SangsterLogP compilation

Test: method code RP-HPLC, from DOI: 10.1021/jm030408h, PMID: 14971904

`CC(=O)O[C@H]1C(=O)[C@@]2(C)[C@H]([C@H](OC(=O)c3ccccc3)[C@]3(O)C[C@H](OC(=O)[C@H](O)[C@@H](NC(=O)c4ccccc4)c4ccccc4)C(C)=C1C3(C)C)[C@]1(OC(C)=O)CO[C@@H]1C[C@@H]2O` gave a logP of 4.5.
